Measurements published in US12528818B2, “Compositions and methods for inhibition of RAS” (Leidos Biomedical Research, Inc., priority 2021, dated 2026).

How the values were obtained:
[1] = target: Avi-KRAS G12C (1-169) GppNHp/RAF1 RBD-3xFLAG (52-151) (Homo sapiens, UniProt P01116, G12C); test: biochemical; conditions: Raf1-GppNHp-KRAS G12C disruption, Raf1 RBD-KRAS G12C-GppNHp disruption assay IC50
[2] = target: T1, GTP-loaded KRAS4b (amino acids 1-169) G12C/C118S protein (Homo sapiens, UniProt P01116, C118S/G12C); test: Covalent cysteine 12 modification by MALDI-TOF MS, GTP-loaded KRAS G12C; format: biochemical; conditions: 15 minutes reaction time, compound 95 or later using 1 μM proteins
T1 construct: KRAS4b (amino acids 1-169) G12C/C118S protein; made in house

[3] = target: GppNHp-loaded KRAS4b (amino acids 1-169) G12C/C118S protein (Homo sapiens, UniProt P01116, C118S/G12C); test: Covalent cysteine 12 modification by MALDI-TOF MS, GppNHp-loaded KRAS G12C; format: biochemical; conditions: 15 minutes reaction time, compound 95 or later using 1 μM proteins
[4] = target: GDP-loaded KRAS4b (amino acids 1-169) G12C/C118S protein (Homo sapiens, UniProt P01116, C118S/G12C); test: Covalent cysteine 12 modification by MALDI-TOF MS, GDP-loaded KRAS G12C; format: biochemical; conditions: 15 minutes reaction time, compound 95 or later using 1 μM proteins

SMILES	IC50 [1] [nM]	GTP-KRAS G12C percent of modification [2]	GppNHp-KRAS G12C percent of modification [3]	GDP-KRAS G12C percent of modification [4]
C=CC(=O)N1CCC(N(C)c2nc(OC[C@@]34CCCN3C[C@H](F)C4)nc3c(C#N)c(-c4ccc(F)c5sc(N)c(C#N)c45)c(Cl)cc23)[C@H]1C (stereo partly drawn) [Compound 388, 4-((1-acryloyl-2-methylpyrrolidin-3-yl)(methyl)amino)-7-(2-amino-3-cyano-7-fluorobenzo[b]thiophen-4-yl)-6-chloro-2-(((2R,7aS)-2-fluorotetrahydro-1H-pyrrolizin-7a(5H)-yl)methoxy)quinazoline-8-carbonitrile]	< 500	A (percent of modification ≥70%)	A (percent of modification ≥70%)	A (percent of modification ≥70%)
C=CC(=O)N1CCC(N(C)c2nc(OC[C@@]34CCCN3C[C@H](F)C4)nc3cc(-c4ccc(F)c5sc(N)c(C#N)c45)ccc23)[C@H]1COC (stereo partly drawn) [Compound 389, 4-(4-((1-acryloyl-2-(methoxymethyl)pyrrolidin-3-yl)(methyl)amino)-2-(((2R,7aS)-2-fluorotetrahydro-1H-pyrrolizin-7a(5H)-yl)methoxy)quinazolin-7-yl)-2-amino-7-fluorobenzo[b]thiophene-3-carbonitrile]	< 500	A (percent of modification ≥70%)	A (percent of modification ≥70%)	A (percent of modification ≥70%)
C=CC(=O)N1CC[C@@H](N(C)c2nc(OC[C@@]34CCCN3C[C@H](F)C4)nc3cc(-c4ccc(F)c5sc(N)c(C#N)c45)c(F)cc23)[C@H]1COC [Compound 391]	< 500	A (percent of modification ≥70%)	A (percent of modification ≥70%)	A (percent of modification ≥70%)
C=CC(=O)N1CCC(N(CC)c2nc(OC[C@@H]3C[C@@H](OC)CN3C)nc3c(F)c(-c4ccc(F)c5sc(N)c(C#N)c45)c(C(F)(F)F)cc23)[C@H]1C (some centres unmarked) [Compound 392]	< 500	C (10%≤percent of modification <50%)	C (10%≤percent of modification <50%)	B (50≤percent of modification <70%)
C=CC(=O)N1CC[C@@H](N(C)c2nc(OC[C@@]34CCCN3C[C@H](F)C4)nc3cc(-c4ccc(F)c5sc(N)c(C#N)c45)c(C#N)cc23)[C@H]1COC [Compound 393]	< 500	A (percent of modification ≥70%)	A (percent of modification ≥70%)	A (percent of modification ≥70%)
C=CC(=O)N1CCC(N(C)c2nc(OC[C@@]34CCCN3C[C@H](F)C4)nc3c(C#N)c(-c4ccc(F)c5sc(N)c(C#N)c45)ccc23)[C@H]1COC (some centres unmarked) [Compound 394]	< 500	A (percent of modification ≥70%)	A (percent of modification ≥70%)	A (percent of modification ≥70%)
C=CC(=O)N1CCC(N(CC)c2nc(OC[C@@H]3CCCN3C)nc3c(F)c(-c4ccc(F)c5sc(N)c(C#N)c45)c(C(F)(F)F)cc23)[C@H]1C (some centres unmarked) [Compound 396]	< 500	B (50≤percent of modification <70%)	B (50≤percent of modification <70%)	A (percent of modification ≥70%)
C=CC(=O)N1CC[C@@H](N(C)c2nc(OC[C@@]34CCCN3C[C@H](F)C4)nc3c(F)c(-c4ccc(F)c5sc(N)c(C#N)c45)c(C(F)(F)F)cc23)[C@H]1COC [Compound 401]	< 500	C (10%≤percent of modification <50%)	C (10%≤percent of modification <50%)	A (percent of modification ≥70%)
